Measured values published in US20230265198A1 (TWIST BIOSCIENCE, published 2023).

Target: neuropilin-1 (NRP1) on HEK293 cells overexpressing NRP1 (UniProt O14786)
Assay: flow cytometry, HEK293-NRP1 vs HEK293

100 nM FACS (MFI Ratio): 10.8
Substance: NRP1-133 (antibody)
